Patent publication US11376333B2, “mTG substrates for covalent conjugation of compounds” (COVALAB, priority 2013, dated 2022)

Columns and labels:
[1] = target: T1, microbial transglutaminase (mTG) (Streptomyces mobaraensis, UniProt P81453); assay: mTG-mediated incorporation of biotin-X-cadaverine into peptides coupled on Covabtest plate; assay type: biochemical; details: 15 nmoles peptide coupled to plate, biot-cad 0.1 mg/ml, mTG 10 ng/well
T1 construct: purchased Covalab, France opr 0054
T1 sequence (P81453 77-407): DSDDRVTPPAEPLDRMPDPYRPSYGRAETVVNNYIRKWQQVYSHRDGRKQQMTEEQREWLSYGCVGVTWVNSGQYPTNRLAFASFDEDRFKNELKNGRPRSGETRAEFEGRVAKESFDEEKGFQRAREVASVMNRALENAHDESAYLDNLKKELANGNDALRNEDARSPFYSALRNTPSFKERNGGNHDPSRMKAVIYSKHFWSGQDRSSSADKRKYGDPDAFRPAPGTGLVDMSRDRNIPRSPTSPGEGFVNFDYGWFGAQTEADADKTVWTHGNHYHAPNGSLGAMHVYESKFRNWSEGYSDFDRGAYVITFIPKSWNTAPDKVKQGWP
Experimental: The coupling method was previously described by the Applicant (V. Thomas et al, 2004) and also in the corresponding data sheet of CovAbtest-Plate™ which is commercially available from Covalab (Ref #opr0004). Briefly, in separate tubes a solution mixture containing 150 μM of each peptide dissolved in 10 mM phosphate buffer pH5, 5 mM EDAC and 5 mM NHS was incubated for 30 min under gentle shaking. The resulting activated NHS-carboxyl C-terminal moiety of each peptide (15 nmoles) was used to be conjugated in each well of CovAbtest-Plate™ previously deprotonated during 15 min with 150 μl 0.6% sodium bicarbonate per well. […]
For this experiment we used the same procedures described by V Thomas et all (2004) and also in the Covalab's commercialized kit (opr0033). […] Absorbances at 450 nm were measured using a microplate reader (Multiskan, Labsystems, Helsinki, Finland).
To screen the peptide library (Covalab) and identify the putative new substrates of mTG we used Covabtest-peptide (described in B-I-1) in which the peptides were covalently coupled into the plates and the amine substrate Biotin-cadeverine (biot-cad) was free in solution. In this experiment 15 nmoles of each peptide (table 2) were covalently conjugated to microtiter plate and the incorporation of biot-cad (0.1 mg/ml) catalyzed by mTG (10 ng/well) was determined following the experiment described in B-II-1. […]

[2] = target: T2, human transglutaminase 2 (hTG2) (Homo sapiens, UniProt P21980); assay: TG2-mediated incorporation of biotin-cadaverine into peptides coupled on Covabtest plate; assay type: biochemical; details: same conditions as for mTG
T2 construct: purchased Covalab, France opr 0027
T2 sequence (P21980 1-687): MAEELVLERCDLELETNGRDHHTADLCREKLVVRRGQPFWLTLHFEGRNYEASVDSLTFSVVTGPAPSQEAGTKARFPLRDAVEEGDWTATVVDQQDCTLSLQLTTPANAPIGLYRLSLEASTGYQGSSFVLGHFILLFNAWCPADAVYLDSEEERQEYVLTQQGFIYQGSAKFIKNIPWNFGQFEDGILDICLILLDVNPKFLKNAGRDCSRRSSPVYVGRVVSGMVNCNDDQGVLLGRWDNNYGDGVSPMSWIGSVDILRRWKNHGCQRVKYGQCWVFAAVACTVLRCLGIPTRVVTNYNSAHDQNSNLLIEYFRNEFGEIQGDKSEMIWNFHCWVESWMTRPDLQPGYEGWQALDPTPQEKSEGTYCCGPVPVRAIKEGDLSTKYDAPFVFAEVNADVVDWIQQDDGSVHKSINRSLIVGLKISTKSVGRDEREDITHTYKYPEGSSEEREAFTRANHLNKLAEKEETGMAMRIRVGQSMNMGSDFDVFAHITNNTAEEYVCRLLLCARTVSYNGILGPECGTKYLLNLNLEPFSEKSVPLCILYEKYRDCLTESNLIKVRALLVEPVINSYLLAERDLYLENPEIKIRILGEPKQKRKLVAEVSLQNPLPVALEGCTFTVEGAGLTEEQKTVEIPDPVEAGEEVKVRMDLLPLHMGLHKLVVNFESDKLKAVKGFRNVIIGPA
Experimental: The coupling method was previously described by the Applicant (V. Thomas et al, 2004) and also in the corresponding data sheet of CovAbtest-Plate™ which is commercially available from Covalab (Ref #opr0004). Briefly, in separate tubes a solution mixture containing 150 μM of each peptide dissolved in 10 mM phosphate buffer pH5, 5 mM EDAC and 5 mM NHS was incubated for 30 min under gentle shaking. The resulting activated NHS-carboxyl C-terminal moiety of each peptide (15 nmoles) was used to be conjugated in each well of CovAbtest-Plate™ previously deprotonated during 15 min with 150 μl 0.6% sodium bicarbonate per well. The microtiter plate was then incubated during 2 hrs at room temperature and washed extensively with Tris Buffer Saline.
For this experiment we used the same procedures described by V Thomas et all (2004) and also in the Covalab's commercialized kit (opr0033). Briefly the Lyophilized transglutaminase was reconstituted in 40 mM tris buffer pH 8 and 50 μl of each mTG at 200 ng/ml and at 40 ng/ml were added in the wells containing 50 μl of biotin-X-cadaverine. The enzymatic mixture was incubated for 15 min at room temperature under gentle shaking. […] Absorbances at 450 nm were measured using a microplate reader (Multiskan, Labsystems, Helsinki, Finland). […]

Z-Q-G (QG) [TGpan, peptide known to be good substrate for transglutaminases, reference compound]
reactivity as Gln donor for mTG incorporation of biot-cad [1]: low reactivity | reactivity as substrate for TG2 incorporation of biot-cad [2]: good substrate for TG2
